Here are results for one molecule from PubChem BioAssay AID2261 (Sanford-Burnham Center for Chemical Genomics, 2010).

SMILES strings stand for the structures. Calls of active or inactive are those of the source. Where only a bound is given, the exact number is not on record here.

For this experiment, the system named is NF-kB luciferase reporter cells, PMA/ionomycin-induced. Put plainly: PubChem AID 2261.

For orientation: IC50 means the concentration at which inhibition is half-maximal. With `Cc1ccc(S(=O)(=O)n2c(N)nc3ccccc32)cc1`, the IC50 was inactive: > 25 µM.
